Assay results from patent publication EP4840855A1, “SULFONAMIDE DERIVATIVE, PREPARATION METHOD THEREFOR AND USE THEREOF” (dated 2026).

By UniProt entry, the sequences of proteins in these tests, tags left out.
UniProt Q9NRF8, whole entry: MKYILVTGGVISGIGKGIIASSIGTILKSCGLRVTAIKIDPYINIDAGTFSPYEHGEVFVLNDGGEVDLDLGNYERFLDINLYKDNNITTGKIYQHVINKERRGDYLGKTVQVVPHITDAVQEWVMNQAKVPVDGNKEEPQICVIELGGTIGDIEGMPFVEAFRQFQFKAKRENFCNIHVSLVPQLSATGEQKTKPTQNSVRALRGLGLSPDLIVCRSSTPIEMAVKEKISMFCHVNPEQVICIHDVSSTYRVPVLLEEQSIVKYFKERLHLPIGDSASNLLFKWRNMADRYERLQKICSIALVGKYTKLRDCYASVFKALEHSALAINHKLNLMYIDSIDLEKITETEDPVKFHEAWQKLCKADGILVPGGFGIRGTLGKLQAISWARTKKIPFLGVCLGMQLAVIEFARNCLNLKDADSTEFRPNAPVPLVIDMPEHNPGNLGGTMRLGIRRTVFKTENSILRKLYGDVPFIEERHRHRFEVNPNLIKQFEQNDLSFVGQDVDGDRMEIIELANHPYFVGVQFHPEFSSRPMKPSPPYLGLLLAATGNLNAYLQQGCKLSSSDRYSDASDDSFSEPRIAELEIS

Columns and labels:
[1] = test system: Jurkat (Clone E6-1) cells; assay: Inhibition on Jurkat cell proliferation (CellTiter-Glo cell viability); details: 72 hours culture
[2] = test system: BxPC-3 cells (human primary pancreatic cancer cells); assay: Inhibition on BxPC-3 cell proliferation (CellTiter-Glo cell viability); details: 120 hours culture
Description: The following method was used to determine the effect of the compounds of the present disclosure on the proliferation of BxPC-3 cells (human primary pancreatic cancer cells). BxPC-3 cells were purchased from the Cell Resource Center of Shanghai Institutes for Biological Sciences, Chinese Academy of Sciences, and were cultured in DMEM medium containing 10% fetal bovine serum, 100 U penicillin, and 100 µg/mL streptomycin. Cell viability was determined using CellTiter-Glo® Luminescent Cell Viability Assay kit (Promega, catalog number G7573).
The experimental method was performed according to the steps in the kit's manual, briefly described as follows: The test compound was first dissolved in DMSO to prepare a 10 mM stock solution, then diluted with medium to prepare test samples, with a final concentration range of the compound from 10000 nM to 1.52 nM. Cells in logarithmic growth phase were seeded into a 96-well cell culture plate at a density of 1000 cells per well, then the test compounds were added, and the cells were cultured in a 37°C CO2 incubator for 120 hours. After culture was completed, 50 µL of CellTiter-Glo detection reagent was added to each well, the plate was shaken for 5 minutes, then allowed to stand for 10 minutes, and then the luminescence value of each well of the sample was read on a microplate reader using Luminescence mode. The percentage inhibition rates of the compounds at each concentration point were calculated by comparing with the value of a control group (0.1% DMSO). Then nonlinear regression analysis was performed on compound concentration logarithm-inhibition rate in GraphPad Prism 9 software to obtain the IC50 values of the compounds for inhibiting cell proliferation, as shown in Table 4. Table 4 IC50 data for inhibition on BxPC-3 cell proliferation by the compounds of the present disclosure

[3] = target: human cytidine triphosphate synthase 2 (hCTPS2) (Homo sapiens, UniProt Q9NRF8); assay: Inhibition on hCTPS2 enzyme activity (ADP-Glo Kinase Assay), selectivity hCTPS1 versus hCTPS2
Description: The following method was used to determine the degree of inhibition on human cytidine triphosphate synthase 2 (hCTPS2) enzyme activity by the compounds of the present disclosure in vitro. ADP-Glo™ Kinase Assay kit (catalog number V9102) from Promega was used. The kit's manual may be referred for a detailed experimental procedure.
The experimental procedure was briefly described as follows: The reaction was performed in a buffer containing 50 mM 4-hydroxyethylpiperazineethanesulfonic acid (HEPES), 10 mM magnesium chloride, 5 mM potassium chloride, 0.01% Pluronic F127, and 4 mM dithiothreitol in a 384-well plate. First, 100 nL of gradient-diluted compound was transferred to a 384-well reaction plate via a nanoliter acoustic liquid transfer system (manufacturer: Labcyte; catalog number: Echo 655), and 2.5 µL of buffer containing hCTPS2 was added, followed by incubation in a 25°C incubator for 10 minutes. Then 2.5 µL of buffer containing ATP and UTP was added, followed by incubation in a 25°C incubator for 10 minutes. Finally, 5 µL of buffer containing GTP and L-glutamine (L-Gln) was added to initiate the reaction. The final reaction system was: 40 nM hCTPS2, 120 µM ATP, 160 µM UTP, 60 µM GTP, 100 µM L-Glutamine, 1% DMSO, with a total assay volume of 10 µL. The reaction was performed for 120 minutes, then 10 µL of ADP-Glo Reagent was added to terminate the reaction, followed by incubation for 1 hour. Then 20 µL of Kinase Detection Reagent was added, and after 1 hour, the chemiluminescence value was recorded on an Envision multilabel microplate detector (manufacturer: PerkinElmer; catalog number: Envision 2104). The percentage inhibition rates of the compounds at each concentration were calculated by comparing the chemiluminescence intensity ratio with a control group (0.1% DMSO). The IC50 value of the compounds were obtained by nonlinear regression analysis of compound concentration logarithm-inhibition rate using GraphPad Prism 5 software.
The fold selectivity between CTPS1 and CTPS2 was calculated according to the following equation: Fold selectivity = hCTPS2 IC50/hCTPS1 IC50 [formula]

## CCOc1cncc(-c2ccc(NC(=O)C3(c4cc(NS(=O)(=O)C5CC5)ncn4)CC4CC4C3)c(F)c2)n1 (stereo not drawn)
[1]
  IC50: 0.0111 µM
[2]
  IC50: 0.0164 µM

## CCOc1cncc(-c2cnc(C(=O)NC3(c4cc(NS(=O)(=O)C5CC5)ncn4)CC4CC4C3)s2)n1 (stereo not drawn)
[1]
  IC50: 0.00432 µM
[3]; Fold selectivity = hCTPS2 IC50/hCTPS1 IC50
  Fold selectivity: > 1000
[3]; read-out: hCTPS2 IC50, 40 nM hCTPS2, 120 µM ATP, 160 µM UTP, 60 µM GTP, 100 µM L-Glutamine, 120 minutes
  IC50: > 10 µM
[2]
  IC50: 0.0248 µM
